Tests used:
[1] = prior art RU 2124022; cited from earlier work
[2] = for Solubility in Glacial acetic acid: solvent glacial acetic acid; for Solubility in o-Dichlorobenzene: solvent o-dichlorobenzene; for Solubility in Toluene: solvent toluene; for Solubility in Water: solvent water
hepatitis C virus = assay: Viability of hepatitis C virus-infected SPEV cell cultures; format: cell-based, hepatitis C virus genotype 1b; settings: 100 μg/ml, 7th day after the infection
Experimental: In our work we used cytopathogenic strain of hepatitis C virus belonging to geno-type 1b. The strain was isolated from the blood serum of a patient suffering from chronic viral hepatitis C, identified as hepatic C virus. Infective doses of HSV equal to 10 TCD of 50/20 μl were used in the investigation.
Cultures of reinoculated porcine embryo kidney cells (SPEV), highly sensitive to the pathogenic action of HSV, obtained from “Narva” Company (Russia) were employed. These cultures were used in the form of a one day monolayer of cells, grown in 24-cell plastic plates. The cultures of SPEV cells were grown on medium 199 with 10% of fetal calf serum with addition of glutamine and antibiotics (100 U/ml).
Different dilutions of the preparation—sodium salt of fullerene-polyamino-caproic acid—from 100 μg/ml and lower on the medium 199 were used in the experiment. For studying the antiviral activity of the preparation, the preparation was introduced in various concentrations into the SPEV cell cultures at the moment of infection and in 24 hours after the infection with hepatitis C virus on the cell in 24-cell plastic culture plates.
The viability of the SPEV cell cultures infected and non-infected with HSV was studied on the 7th day after the infection.

Substance	Solubility in dimethylsulfoxide, dimethylformamide, and pyridine [1]	Solubility in Glacial acetic acid [2]	Solubility in o-Dichlorobenzene [2]	Solubility in Toluene [2]	Solubility in Water [2]	Viability of HCV-infected cells (hepatitis C virus) [%]
N-(monohydro)-fullerene-amino-caproic acid HC60NH(CH2)5COOH	soluble	–	–	–	–	–
Fullerene-polyamino-caproic acid	–	Yes	No	No	No	–
sodium salt of fullerene-polyamino-caproic acid	–	Yes	No	No	Yes	100

— patent US20060122276A1, “Agent for inhibiting membrane virus reproduction, method for the production thereof, pharmaceutical composition and method for inhibiting viral infections” (priority 2003, published 2006)
